From US20090291064A1 (priority 2008, published 2009) come the findings set out here.

This data set deals with CYP2. The procedure:
Several CYP450 enzymatic activities were investigated in PICM-19H cells to determine the presence and inducible nature of major CYP450 isoforms. […] Cells were washed with PBS and appropriate inducer medium was added for 48 h prior to experimentation.
CYP450 activity was assessed in T25 cultures of PICM-19H cells that were grown for 3 wk post-passage. T25 cultures of APH or HepG2 C3A cells were tested after 3 d of primary culture and at 1 wk post-passage or near confluency, respectively. […] After the initial induction, cells were washed and given a non-fluorescent substrate for CYP1A1, CYP1A2, CYP2, or CYP3A (7-ERF, 7-MRF, MFC, and BFC, respectively). […] Medium samples were collected, centrifuged to remove cell debris (14,000×g, 2 min) and frozen at −80° C. until analyzed. […] Fluorescence was determined in an HTS 7000 plate reader; excitation/emission filter pairs were 530/590 and 410/510 for resorufin and 7-HFC, respectively. To determine relative conjugation activity, fluorescence was also determined directly without incubating first in β-glucuronidase/arylsulphatase. Since conjugated forms of resorufin and 7-HFC are non-fluorescent, the difference between the direct and indirect fluorescence measurements represents the amount of product which had been modified by conjugating enzymes.

With `CO[C@H]1/C=C/O[C@@]2(C)Oc3c(C)c(O)c4c(O)c(c(/C=N/N5CCN(C)CC5)c(O)c4c3C2=O)NC(=O)/C(C)=C\C=C\[C@H](C)[C@H](O)[C@@H](C)[C@@H](O)[C@@H](C)[C@H](OC(C)=O)[C@@H]1C` [Rif, rifampicin], the “MFCD activity induction (in words)” value was “equally induced”.
